This is an account of results in PubChem BioAssay (Tox21).

Sequences of proteins named here, by UniProt entry; tags and fusion partners are left off.
UniProt P03372, whole entry: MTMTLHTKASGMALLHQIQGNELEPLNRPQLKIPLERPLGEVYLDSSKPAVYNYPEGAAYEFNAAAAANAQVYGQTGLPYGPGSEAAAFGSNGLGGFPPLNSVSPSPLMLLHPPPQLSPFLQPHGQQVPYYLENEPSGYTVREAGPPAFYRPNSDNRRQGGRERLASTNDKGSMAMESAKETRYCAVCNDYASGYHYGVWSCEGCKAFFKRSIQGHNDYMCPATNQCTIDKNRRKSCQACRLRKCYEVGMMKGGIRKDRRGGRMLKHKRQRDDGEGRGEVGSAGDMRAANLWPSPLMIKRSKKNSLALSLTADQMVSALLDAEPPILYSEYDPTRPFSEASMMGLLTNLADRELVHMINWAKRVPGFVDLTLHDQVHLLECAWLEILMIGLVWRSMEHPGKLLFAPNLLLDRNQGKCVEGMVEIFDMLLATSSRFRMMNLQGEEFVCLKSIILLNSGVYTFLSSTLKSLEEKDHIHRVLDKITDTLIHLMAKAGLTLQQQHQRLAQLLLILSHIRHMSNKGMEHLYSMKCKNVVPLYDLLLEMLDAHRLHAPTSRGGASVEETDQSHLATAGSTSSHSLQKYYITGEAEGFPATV
UniProt P11511, whole entry: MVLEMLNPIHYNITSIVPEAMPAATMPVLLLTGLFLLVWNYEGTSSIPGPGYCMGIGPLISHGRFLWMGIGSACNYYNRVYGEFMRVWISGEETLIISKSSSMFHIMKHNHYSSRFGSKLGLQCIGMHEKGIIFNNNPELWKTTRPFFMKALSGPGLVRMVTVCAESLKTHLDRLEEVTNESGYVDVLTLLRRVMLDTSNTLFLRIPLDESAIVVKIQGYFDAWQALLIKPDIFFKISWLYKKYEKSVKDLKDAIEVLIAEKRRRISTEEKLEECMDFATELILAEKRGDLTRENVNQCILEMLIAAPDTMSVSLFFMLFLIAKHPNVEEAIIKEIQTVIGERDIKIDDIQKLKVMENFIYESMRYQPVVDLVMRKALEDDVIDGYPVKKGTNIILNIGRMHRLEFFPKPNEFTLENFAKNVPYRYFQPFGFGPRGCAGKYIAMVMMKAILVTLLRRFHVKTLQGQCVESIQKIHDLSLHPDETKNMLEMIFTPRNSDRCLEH
UniProt P37231, whole entry: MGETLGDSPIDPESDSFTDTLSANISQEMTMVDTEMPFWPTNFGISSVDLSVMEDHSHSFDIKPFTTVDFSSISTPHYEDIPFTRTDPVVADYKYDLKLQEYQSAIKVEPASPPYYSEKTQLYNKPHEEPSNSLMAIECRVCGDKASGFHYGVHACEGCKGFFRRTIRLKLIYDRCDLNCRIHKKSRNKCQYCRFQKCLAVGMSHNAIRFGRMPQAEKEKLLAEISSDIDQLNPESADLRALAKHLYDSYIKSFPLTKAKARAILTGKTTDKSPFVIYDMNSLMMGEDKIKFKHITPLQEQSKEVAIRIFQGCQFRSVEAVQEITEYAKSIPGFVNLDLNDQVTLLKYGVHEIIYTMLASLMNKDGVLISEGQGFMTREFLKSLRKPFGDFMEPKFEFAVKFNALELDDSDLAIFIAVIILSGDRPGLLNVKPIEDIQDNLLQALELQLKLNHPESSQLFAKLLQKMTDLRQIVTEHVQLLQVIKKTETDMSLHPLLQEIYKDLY
UniProt P35869, whole entry: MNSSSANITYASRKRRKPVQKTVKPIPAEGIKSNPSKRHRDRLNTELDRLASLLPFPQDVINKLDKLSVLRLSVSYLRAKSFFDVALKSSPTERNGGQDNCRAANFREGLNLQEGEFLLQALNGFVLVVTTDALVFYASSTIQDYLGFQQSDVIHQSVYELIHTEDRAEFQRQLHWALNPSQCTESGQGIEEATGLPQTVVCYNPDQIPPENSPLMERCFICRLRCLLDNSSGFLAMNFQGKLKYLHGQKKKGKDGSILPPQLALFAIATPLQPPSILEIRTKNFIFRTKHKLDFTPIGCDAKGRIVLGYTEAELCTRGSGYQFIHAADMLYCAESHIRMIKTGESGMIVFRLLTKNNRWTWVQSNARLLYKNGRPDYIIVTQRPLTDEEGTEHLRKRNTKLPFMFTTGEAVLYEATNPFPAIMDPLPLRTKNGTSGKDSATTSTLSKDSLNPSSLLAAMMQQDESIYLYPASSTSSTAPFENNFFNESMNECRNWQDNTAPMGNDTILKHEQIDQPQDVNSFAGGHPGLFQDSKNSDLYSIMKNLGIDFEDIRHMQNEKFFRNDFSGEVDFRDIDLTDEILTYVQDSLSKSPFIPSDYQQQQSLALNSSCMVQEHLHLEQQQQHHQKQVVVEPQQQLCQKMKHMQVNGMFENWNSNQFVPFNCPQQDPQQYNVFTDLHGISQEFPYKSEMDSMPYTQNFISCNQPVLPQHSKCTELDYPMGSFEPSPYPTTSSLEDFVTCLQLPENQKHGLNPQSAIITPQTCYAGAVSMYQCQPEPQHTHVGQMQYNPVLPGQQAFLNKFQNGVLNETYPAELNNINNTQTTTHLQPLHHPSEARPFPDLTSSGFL
UniProt P10275, whole entry: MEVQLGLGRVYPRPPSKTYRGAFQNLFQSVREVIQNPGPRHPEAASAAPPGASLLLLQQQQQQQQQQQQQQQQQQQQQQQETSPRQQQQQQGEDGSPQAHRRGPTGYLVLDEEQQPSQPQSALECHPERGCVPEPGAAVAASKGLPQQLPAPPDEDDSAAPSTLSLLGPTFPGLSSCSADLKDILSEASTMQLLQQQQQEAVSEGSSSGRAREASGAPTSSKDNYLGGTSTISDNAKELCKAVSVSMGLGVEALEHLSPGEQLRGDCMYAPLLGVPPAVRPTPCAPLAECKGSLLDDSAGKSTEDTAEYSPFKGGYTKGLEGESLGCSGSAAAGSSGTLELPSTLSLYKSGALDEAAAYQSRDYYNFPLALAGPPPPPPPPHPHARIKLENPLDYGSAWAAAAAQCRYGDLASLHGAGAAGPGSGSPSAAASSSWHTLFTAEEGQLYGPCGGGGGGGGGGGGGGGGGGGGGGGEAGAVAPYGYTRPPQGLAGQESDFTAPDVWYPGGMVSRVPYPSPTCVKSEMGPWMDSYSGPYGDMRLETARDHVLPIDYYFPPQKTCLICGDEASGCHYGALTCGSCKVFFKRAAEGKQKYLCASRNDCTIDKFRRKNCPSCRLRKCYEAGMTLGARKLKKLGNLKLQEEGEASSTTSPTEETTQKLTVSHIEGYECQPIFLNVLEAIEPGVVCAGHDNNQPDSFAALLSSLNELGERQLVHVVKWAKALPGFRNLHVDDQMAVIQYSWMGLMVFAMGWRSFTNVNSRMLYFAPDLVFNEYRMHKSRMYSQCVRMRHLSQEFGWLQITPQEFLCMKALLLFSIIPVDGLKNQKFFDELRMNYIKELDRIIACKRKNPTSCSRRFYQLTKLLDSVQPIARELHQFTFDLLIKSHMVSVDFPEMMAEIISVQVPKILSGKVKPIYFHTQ

The nature of assay [1]: qHTS assay for identifying genotoxic compounds that show differential cytotoxicity against isogenic chicken DT40 cell lines with known DNA damage response pathways - Rev3 mutant cell line (AID 743014; note: nearly all actives have a fitted effect of over 55% in size; note: potency is the fitted concentration of half-maximal effect). (qHTS replaces the single test concentration by a dilution series.)
The nature of assay [2]: qHTS assay to identify small molecule antagonists of the androgen receptor (AR) signaling pathway - cell viability counter screen (AID 743033; note: nearly all actives have a fitted effect of over 45% in size). The following applies: AR-bla HEK293 viability, CellTiter-Glo luminescence, 16 h.
A short description of assay [3]: qHTS assay to identify small molecule antagonists of the androgen receptor (AR) signaling pathway using the MDA cell line - cell viability counter screen (AID 743041; note: nearly all actives have a fitted effect of over 45% in size). The following applies: MDA-kb2 viability, CellTiter-Fluor, 16 h, cells co-treated with R1881 androgen agonist. Summed up:
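qHTS viability read-out; MDA-kb2 AR-luc; R1881-stimulated; 16 h exposure at 37C, 0% CO2; CellTiter-Fluor, 30 min; fluorescence intensity.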

A short description of assay [4]: qHTS assay to identify small molecule antagonists of the thyroid receptor (TR) signaling pathway - cell viability counter screen (AID 743064). Note: nearly all actives have a fitted effect of over 50% in size. Note: potency is the fitted concentration of half-maximal effect. Summed up:
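Rat GH3 pituitary tumor cells stably expressing two TR response elements driving luciferase were plated, rested 4 h, then dosed with library compounds and T3 (1 nM final). After 23.5 h at 37 °C, CellTiter-Fluor was added for 30 min and fluorescence recorded.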

In assay [5] the test system is thyroid hormone receptor (rat, GH3 cells). Briefly: qHTS assay to identify small molecule agonists of the thyroid receptor (TR) signaling pathway (AID 743066; calls by dose curve). To be noted: GH3.TRE-Luc cells, TR agonist luciferase, 24 h.
Assay [6] is described as follows: qHTS assay to identify small molecule antagonists of the estrogen receptor alpha (ER-alpha) signaling pathway - cell viability counter screen (AID 743074; calls by dose curve;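 note: HEK293 cells carrying ER-alpha-UAS-bla reporter stimulated with 17beta-estradiol; nearly all actives have a fitted effect of over 45% in size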). To be noted: ERalpha-bla HEK293 viability, CellTiter-Glo luminescence, 18 h.
Assay [7] deals with Estrogen receptor (Homo sapiens) (UniProt P03372). Put plainly: qHTS assay to identify small molecule agonists of the estrogen receptor alpha (ER-alpha) signaling pathway (AID 743075; calls by dose curve;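 note: HEK293 GripTite cells with ER-alpha and UAS-driven beta-lactamase reporter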). To be noted: HEK293 ER-alpha-UAS-bla, beta-lactamase FRET ratio, 18 h.
The target is the same in assay [8]. Briefly: qHTS assay to identify small molecule agonists of the estrogen receptor alpha (ER-alpha) signaling pathway using the BG1 cell line (AID 743079). Note: nearly all actives have a fitted effect of over 20% in size. Note: potency is the fitted concentration of half-maximal effect.
Assay [9] in a line: qHTS assay to identify small molecule antagonists of the estrogen receptor alpha (ER-alpha) signaling pathway using the BG1 cell line (AID 743080; calls by dose curve;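 note: BG1 cells stimulated with 17beta-estradiol alongside compound; nearly all actives have a fitted effect of over 25% in size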). The following applies: BG1Luc4E2 ERE-luciferase antagonist mode, luminescence. In short, it runs like this:
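BG1-Luc-4E2 cells (endogenous full-length ER-alpha, 4xERE luciferase) hormone-starved 5 days in charcoal-stripped FBS, plated 4,000/well for 24 h, then compound plus 17beta-estradiol for 21.5 h at 37 C; ONE-Glo luminescence read.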

Assay [10] is described as follows: qHTS assay to identify small molecule antagonists of the estrogen receptor alpha (ER-alpha) signaling pathway using the BG1 cell line - cell viability counter screen (AID 743081).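 Note: compound given together with 17beta-estradiol as the ER stimulus; nearly all actives have a fitted effect of over 45% in size.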
The target of another assay is Aromatase (Homo sapiens) (UniProt P11511). Briefly: qHTS assay to identify aromatase inhibitors (AID 743083). Note: nearly all actives have a fitted effect of over 55% in size. To be noted: MCF-7 aro ERE, testosterone-driven ERE luciferase, 24 h.
Assay [11] can be described thus: qHTS assay to identify aromatase inhibitors - cell viability counter screen (AID 743084).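 Note: cells stimulated with testosterone during compound exposure; nearly all actives have a fitted effect of over 55% in size.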 The following applies: MCF-7 aro ERE viability, CellTiter-Fluor, 24 h.
Assay [12] in a line: qHTS assay to identify small molecule that activate the aryl hydrocarbon receptor (AhR) signaling pathway - cell viability counter screen (AID 743086). In short, it runs like this: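 HepG2-AhR-luc (HG2L7.5c1) cells, 4000/well, were preincubated 5 h at 37C, exposed to compound in qHTS format for 24 hr at 37C, then given CellTiter-Fluor for 30 min; viability was read as fluorescence in the reporter wells.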

Assay [13] deals with Peroxisome proliferator-activated receptor gamma (Homo sapiens) (UniProt P37231). Put plainly: qHTS assay to identify small molecule agonists of the peroxisome proliferator-activated receptor gamma (PPARg) signaling pathway (AID 743094; active = well fitted activation curve with a large enough effect in the signal ratio in the repeat runs, not every such curve was filed as active; the % refers to the signal ratio). To be noted: HEK293H PPARg-UAS-bla, beta-lactamase FRET ratio, 17 h. In short, it runs like this: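 Reporter activation was scored by fluorescence of cleaved LiveBLAzer B/G substrate (1 h, room temperature) in PPARg-bla HEK293H cells previously treated 17 h at 37C with DMSO-dissolved compounds.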

Assay [14] has as its target Aryl hydrocarbon receptor (Homo sapiens) (UniProt P35869). Briefly: qHTS assay to identify small molecule that activate the aryl hydrocarbon receptor (AhR) signaling pathway (AID 743085).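 Note: HG2L7.5c1 human HepG2 liver cells with stably integrated DRE-driven firefly reporter; nearly all actives have a fitted effect of over 15% in size.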
Assay [15] addresses Peroxisome proliferator-activated receptor gamma (Homo sapiens) (UniProt P37231). Briefly: qHTS assay to identify small molecule antagonists of the peroxisome proliferator-activated receptor gamma (PPARg) signaling pathway (AID 743191; calls by dose curve; note: nearly all actives have a fitted effect of over 30% in size). In short, it runs like this: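 GeneBLAzer PPARg UAS-bla HEK293H cells carrying a UAS-driven beta-lactamase reporter were plated at 3000 cells/well, preincubated 5 h at 37C, then given compound for 17 h at 37C; LiveBLAzer B/G FRET substrate was read after 1 h at room temperature.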

Assay [16] has as its target Androgen receptor (Homo sapiens) (UniProt P10275). Put plainly: qHTS assay to identify small molecule antagonists of the androgen receptor (AR) signaling pathway (AID 743035; active = well fitted inhibition curve with a large enough effect in the signal ratio in the repeat runs, not every such curve was filed as active; the % refers to the signal ratio). The following applies: HEK293 AR-UAS-bla, R1881-stimulated, beta-lactamase FRET, 16 h; at 58.5 µM (top of the series) unless noted.
For assay [17] the target is unchanged. Put plainly: qHTS assay to identify small molecule agonists of the androgen receptor (AR) signaling pathway (AID 743036; active = well fitted activation curve with a large enough effect in the signal ratio in the repeat runs, with a control signal flat, not every such curve was filed as active; the % refers to the signal ratio). The following applies: HEK293 AR-UAS-bla GripTite, beta-lactamase FRET ratio, 16 h; at 62.4 µM (top of the series) unless noted.
The target is the same in assay [18]. Briefly: qHTS assay to identify small molecule agonists of the androgen receptor (AR) signaling pathway using the MDA cell line (AID 743040; note: nearly all actives have a fitted effect of over 20% in size). The following applies: MDA-kb2 AR-luc cells, MMTV luciferase, 16 h, active compounds read high; at 70.3 µM (top of the series) unless noted.
The target is the same in assay [19]. Put plainly: qHTS assay to identify small molecule antagonists of the androgen receptor (AR) signaling pathway using the MDA cell line (AID 743042; note: nearly all actives have a fitted effect of over 55% in size). To be noted: MDA-kb2 AR-luc, MMTV luciferase, R1881 antagonist, 16 h; at 70.3 µM (top of the series) unless noted.

The structures appear in SMILES notation. Where “and” joins values, the source holds several entries; their conditions need not be identical. Equal values may be shown once. Only a part is listed here, and it is no random draw. Records with an inconclusive call do not appear. Calls of active or inactive are those of the source. Unless noted, calls come from the whole dose curve; as a rule, active = well fitted curve in the direction sought with a large enough effect in the repeat runs; inconclusive = weak or mixed curves; inactive = no such curve, though single readings can be large; an effect the other way counts as inactive or inconclusive.
% is set by controls: 0 for no effect and ±100 for the full control effect.

In the case of `CP(=O)(O)OCCC[Si](O)(O)O`, the Potency result in assay [1], in [4], in [8], in assay [10] and in [12] was “inactive” in each case. Further, the activity change, negative = cytotoxicity was inactive: 1.39% in assay [2] (at 58.5 µM (top of the series)) and inactive: 1.25% in assay [11] (at 70.3 µM (top of the series)). Further, the viability change, negative = cytotoxic in [3] (at 70.3 µM (top of the series)) was inactive: 1.15%. The activation is inactive: 0.246% in assay [5] (at 83.9 µM (top of the series)), inactive: 0.669% in assay [7] (at 70.1 µM (top of the series)) and inactive: 0.0167% in assay [13] (at 57 µM (top of the series)). The activity, negative = cytotoxicity in [6] (at 69.4 µM (top of the series)) was inactive: 23.4%. Moreover, the activity change, negative = inhibition in [9] (at 70.3 µM (top of the series)) was inactive: 1.95%. For the same compound, in the assay with Aromatase (Homo sapiens) (at 70.3 µM (top of the series)), the activity, negative = inhibition was inactive: 14.1%.

On to `C/C1=C2N=C(/C=C3N=C(/C(C)=C4\[N-][C@@](C)([C@@H]5N=C1[C@](C)(CCC(=O)NC[C@@H](C)OP(=O)([O-])O[C@H]1[C@@H](O)[C@@H](n6cnc7cc(C)c(C)cc76)O[C@@H]1CO)[C@H]5CC(N)=O)[C@@](C)(CC(N)=O)[C@@H]4CCC(N)=O)[C@@](C)(CC(N)=O)[C@@H]\3CCC(N)=O)C(C)(C)[C@@H]/2CCC(N)=O.[C-]#N.[Co+3]`, for which the Potency entry in [1], in assay [4], in assay [14], in assay [12] and in [15] was “inactive” each time. In addition, the figures for the activity change, negative = cytotoxicity in [2] (at 27 µM (top of the series)) and in assay [11] (at 32.5 µM (top of the series)) were inactive: -23.3% and inactive: -2.75%, respectively. In assay [3] (at 32.5 µM (top of the series)), the viability change, negative = cytotoxic was inactive: -4.91%. Besides, the results for the activation in assay [5] (at 39.4 µM (top of the series)) and in assay [13] (at 26.2 µM (top of the series)) were inactive: -1.09% and inactive: 3.91%, respectively. In addition, the activity, negative = cytotoxicity in assay [6] (at 32.6 µM (top of the series)) was inactive: 19.1%. Moreover, the activity change, negative = inhibition in [9] (at 32.5 µM (top of the series)) was inactive: 7.62%. Further, in the assay with Aromatase (Homo sapiens) (at 32.5 µM (top of the series)), the activity, negative = inhibition is inactive: -1.17%.

Consider `CC(C)OP(C)(=O)OC(C)C`, for which the Potency result in assay [1], in assay [8], in [10], in assay [14] and in assay [12] was “inactive” each time. For the same compound, the activity change, negative = cytotoxicity in [2] (at 58.5 µM (top of the series)) was inactive: 12.1% and inactive: 6.18%; in [11] (at 70.3 µM (top of the series)), inactive: 8.62% and inactive: 7.05%. Further, the viability change, negative = cytotoxic in assay [3] (at 70.3 µM (top of the series)) is inactive: 5.2% and inactive: 2.5%. Besides, the activation in assay [5] (at 83.9 µM (top of the series)) was inactive: 4.18% and inactive: -0.119%; in assay [7] (at 70.1 µM (top of the series)), inactive: 1.91% and inactive: -0.729%; in assay [13] (at 57 µM (top of the series)) it was inactive: 0.096% and inactive: -0.475%. Moreover, the activity, negative = cytotoxicity in [6] (at 69.4 µM (top of the series)) is inactive: 5.35% and inactive: 15.4%. In addition, the activity change, negative = inhibition in assay [9] (at 70.3 µM (top of the series)) is inactive: 7.11% and inactive: 3.01%. The activity, negative = inhibition with Aromatase (Homo sapiens) (at 70.3 µM (top of the series)) was inactive: -6.22% and inactive: -12.3%.

For `CC(C)N(CCCl)C(C)C`, the Potency result in assay [1], in [4], in [14] and in assay [12] was “inactive” throughout. Moreover, the activity change, negative = cytotoxicity is inactive: -7.69% in assay [2] (at 58.5 µM (top of the series)) and inactive: 11.3% in assay [11] (at 70.3 µM (top of the series)). Also, in assay [3] (at 70.3 µM (top of the series)), the viability change, negative = cytotoxic is inactive: 10.8%. Moreover, the activation in [5] (at 83.9 µM (top of the series)) is inactive: 0.884%; in assay [7] (at 70.1 µM (top of the series)), inactive: 2.91%; in [13] (at 57 µM (top of the series)) it was inactive: -5.28%. Also, the activity, negative = cytotoxicity in assay [6] (at 69.4 µM (top of the series)) was inactive: 13.1%. Besides, the Potency in assay [8] is active: 13.3 µM. Besides, in assay [9] (at 70.3 µM (top of the series)), the activity change, negative = inhibition is inactive: 4.14%. Further, in the assay with Aromatase (Homo sapiens) (at 70.3 µM (top of the series)), the activity, negative = inhibition was inactive: -8.45%.

Consider `CCN(CC)CCCl`, for which the Potency is active: 8.76 µM in [1] and active: 62 µM in assay [4]. For the same compound, the activity change, negative = cytotoxicity in assay [2] (at 78.9 µM (top of the series)) was inactive: -11.6%; in assay [11] (at 95 µM (top of the series)), inactive: -20.8%. The figures for the activity change, negative = inhibition in assay [16], in assay [19] and in [9] (at 95 µM (top of the series)) were inactive: -1.34% [at 78.9 µM], inactive: -8.15% [at 95 µM] and inactive: -11.7%, respectively. Besides, the activation in [17] is inactive: -3.69% [at 79.1 µM]; in assay [5] (at 95.2 µM (top of the series)), inactive: -7.62%; in assay [7] (at 79.1 µM (top of the series)), inactive: 0.227%. Also, the activity change in assay [18] is inactive: -0.0096% [at 95 µM]. Moreover, in [3] (at 95 µM (top of the series)), the viability change, negative = cytotoxic was inactive: 4.43%. The Potency result in assay [8], in assay [10], in assay [14], in assay [12] and in assay [15] was “inactive” in each case. Besides, the activity, negative = inhibition with Aromatase (Homo sapiens) (at 95 µM (top of the series)) was inactive: -1.26%.

Consider `CC(C)OP(=O)(F)OC(C)C`, for which the Potency result in assay [1], in assay [8], in assay [10], in assay [14] and in [12] was “inactive” throughout. Moreover, the values for the activity change, negative = cytotoxicity in [2] (at 58.5 µM (top of the series)) and in [11] (at 70.3 µM (top of the series)) were inactive: 6.29% and inactive: 5.84%, respectively. For the same compound, the viability change, negative = cytotoxic in assay [3] (at 70.3 µM (top of the series)) is inactive: -2.27%. Moreover, the activation in [5] (at 83.9 µM (top of the series)) is inactive: -0.68%; in [7] (at 70.1 µM (top of the series)) it was inactive: -2.24%; in assay [13] (at 57 µM (top of the series)), inactive: 2.89%. The activity, negative = cytotoxicity in assay [6] (at 69.4 µM (top of the series)) is inactive: -1.74%. Moreover, the activity change, negative = inhibition in assay [9] (at 70.3 µM (top of the series)) is inactive: 2.92%. Besides, the activity, negative = inhibition with Aromatase (Homo sapiens) (at 70.3 µM (top of the series)) was inactive: 2.56%.
